Reference: ChEMBL document CHEMBL4715803, “Synthetic Studies of Neoclerodane Diterpenes from Salvia divinorum: Identification of a Potent and Centrally Acting μ Opioid Analgesic with Reduced Abuse Liability” (J Med Chem, 2016)

Test system: Mus musculus
Assay: Antinociceptive activity in male B6-SJL mouse administered subcutaneously daily measured on day 1 by warm water tail-flick assay
Type: functional
Settings: sc, 24 h, time 1 day

SMILES: CN1CC[C@]23c4c5ccc(O)c4O[C@H]2[C@@H](O)C=C[C@H]3[C@H]1C5 [MORPHINE]
- ED50: 5.3 mg/kg
